Protein sequences, listed by entry. Tags and fused reporters are not part of them. Lines headed by an entry give the natural chain unless they say otherwise; changes in a name come on top.
UniProt P48775: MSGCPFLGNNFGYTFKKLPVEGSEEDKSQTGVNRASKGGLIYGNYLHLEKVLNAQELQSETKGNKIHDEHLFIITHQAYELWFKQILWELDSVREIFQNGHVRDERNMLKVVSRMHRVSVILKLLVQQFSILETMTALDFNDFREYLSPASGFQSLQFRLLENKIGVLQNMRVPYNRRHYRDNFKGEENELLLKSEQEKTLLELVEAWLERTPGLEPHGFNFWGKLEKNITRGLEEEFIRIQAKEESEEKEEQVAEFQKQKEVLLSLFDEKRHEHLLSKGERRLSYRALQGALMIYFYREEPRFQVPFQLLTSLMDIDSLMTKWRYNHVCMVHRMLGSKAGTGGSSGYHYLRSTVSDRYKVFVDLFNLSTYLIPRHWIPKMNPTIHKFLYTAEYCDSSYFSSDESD

In patent US10155972B2, “Screening method” (IOmet Pharma Ltd., priority 2013, dated 2018):

Experiments:
[1] = molecular target: human TDO (Homo sapiens (Human), UniProt P48775); assay: TDO coupled biochemical assay
From the text: This coupled enzyme system allowed conversion of N-formylkynurenine produced by TDO or IDO activity to kynurenine which was then quantified by fluorescence following addition of Erhlich's Reagent.

[2] = system: SK-OV-3 ovary adenocarcinoma cells; assay: SKOV3 kynurenine cell based assay; conditions: Homo sapiens; SK-OV-3 cells, IFNγ 500 ng/ml, 500 μM L-Trp, 48 h, absorbance at 490 nm; read-out: SKOV3 Kynurenine cell based assay pIC50 (converted)
[3] = system: A172 human glioblastoma cells; assay: A172 kynurenine cell based assay; conditions: A 172, 500 μM L-Trp, 48 h, absorbance at 490 nm, read-out: A172 Kynurenine cell based assay pIC50 (converted)

For `Fc1ccc2c(/C=C/c3cccnc3)c[nH]c2c1` [Compound 680C91], the IC50 [1] was 10 µM.
For `Nc1nonc1/C(=N\O)Nc1cc(F)cc(Cl)c1` [Incyte 1], the IC50 ([1]; coupled with kynurenine formamidase, 330 μM L-tryptophan, fluorescence 475 nm/530 nm, read-out: hTDO biochemical assay pIC50 (converted)) was 2.51 µM.
Work on `OC(CC1c2ccccc2-c2cncn21)C1CCCCC1` (stereo not shown) [NewLink 1] yielded an IC50 [2] of 3.16 µM and an IC50 [3] of 12.6 µM.

Like-named read-outs stand apart in the source and are kept apart here.
